Test results: patent publication US11207320B2, “Compositions and methods for cancer expressing PDE3A or SLFN12” (The Broad Institute, Inc., priority 2015, dated 2021)

Tested on: HeLa cells
Details: dose-response up to 10 μM, co-treated with DNMDP, 48 hours
Method: HeLa cells were co-treated with 30 nM DNMDP (the EC70 concentration) and 20 μM of each bioactive compound. Cell viability after 48-hour treatment was assessed by ATP consumption as described earlier.
1000 HeLa cells were plated in a 384-well plate in 40 μl of DMEM supplemented with 10% Fetal Bovine Serum and 1% Pen/Strep. 24 hours after plating, a compound-library of 1600 bioactive molecules (Pharmacon) was added at a concentration of 20 μM. In parallel to bioactive compound incubation, DNMDP was added to a final concentration of 30 nM and incubated for 48 hours. Cell viability was assessed as described in Compound library screening in NCI-H1734 and A549 cell lines.

For `OCCN(CCO)c1nc(N2CCCCC2)c2nc(N(CCO)CCO)nc(N3CCCCC3)c2n1` [dipyridamole], the “rescue of DNMDP cytotoxicity / competition with DNMDP” value was “not effective competitors”.
